Here are results for one compound from US12162935B2, “Regimens, compositions and methods with capsaicin and TNF-alpha inhibitor” (priority 2018, dated 2024).

Protein sequences, listed by entry. Tags and fused reporters are not part of them.
UniProt Q8NER1, whole entry, species assumed: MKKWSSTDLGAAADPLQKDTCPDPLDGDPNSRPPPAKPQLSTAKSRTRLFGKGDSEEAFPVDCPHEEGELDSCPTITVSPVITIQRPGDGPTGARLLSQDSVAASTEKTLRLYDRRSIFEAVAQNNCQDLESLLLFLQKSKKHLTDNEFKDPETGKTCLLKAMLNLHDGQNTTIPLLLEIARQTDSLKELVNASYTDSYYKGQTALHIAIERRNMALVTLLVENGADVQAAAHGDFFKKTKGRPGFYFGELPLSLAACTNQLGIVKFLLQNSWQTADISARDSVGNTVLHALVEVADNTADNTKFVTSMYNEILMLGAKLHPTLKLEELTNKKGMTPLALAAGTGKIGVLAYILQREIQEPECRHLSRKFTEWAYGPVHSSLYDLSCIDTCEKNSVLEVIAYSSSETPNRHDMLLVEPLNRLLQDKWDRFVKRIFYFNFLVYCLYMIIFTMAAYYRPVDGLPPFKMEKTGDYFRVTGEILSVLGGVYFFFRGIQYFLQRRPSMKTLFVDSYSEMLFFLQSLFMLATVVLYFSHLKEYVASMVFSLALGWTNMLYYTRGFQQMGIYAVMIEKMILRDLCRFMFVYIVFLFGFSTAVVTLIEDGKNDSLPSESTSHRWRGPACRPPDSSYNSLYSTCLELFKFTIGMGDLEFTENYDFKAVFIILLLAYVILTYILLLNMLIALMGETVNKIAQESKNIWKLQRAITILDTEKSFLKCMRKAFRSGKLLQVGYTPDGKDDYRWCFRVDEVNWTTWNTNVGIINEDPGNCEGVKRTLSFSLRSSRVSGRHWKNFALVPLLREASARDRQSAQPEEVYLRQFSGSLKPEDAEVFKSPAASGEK

For this assay, the target named is TRPV1 (Homo sapiens, UniProt Q8NER1). Put plainly: Ca2+ imaging (Fluo-4AM) in HEKVR1 cells. Type of assay: cell-based. The note with it: capsaicin 2.5 μM with addition of TNF-α 0.1 μg/ml, 30 minutes.

`COc1cc(CNC(=O)CCCC/C=C/C(C)C)ccc1O` [capsaicin, 8-methyl-N-vanillyl-trans-6-nonenamide]: the “increase in Ca^2+ over basal fluorescence” value stood at 3146±532%.
